This is an account of results in ChEMBL document CHEMBL1125719, “2-(3,4-Dichlorophenyl)-N-methyl-N-[2-(1-pyrrolidinyl)-1-substituted- ethyl]-acetamides: the use of conformational analysis in the development of a novel series of potent opioid kappa agonists” (1991).

Protein sequences, listed by entry. Tags and fused reporters are not part of them. Lines headed by an entry give the natural chain unless they say otherwise; changes in a name come on top.
UniProt P41144: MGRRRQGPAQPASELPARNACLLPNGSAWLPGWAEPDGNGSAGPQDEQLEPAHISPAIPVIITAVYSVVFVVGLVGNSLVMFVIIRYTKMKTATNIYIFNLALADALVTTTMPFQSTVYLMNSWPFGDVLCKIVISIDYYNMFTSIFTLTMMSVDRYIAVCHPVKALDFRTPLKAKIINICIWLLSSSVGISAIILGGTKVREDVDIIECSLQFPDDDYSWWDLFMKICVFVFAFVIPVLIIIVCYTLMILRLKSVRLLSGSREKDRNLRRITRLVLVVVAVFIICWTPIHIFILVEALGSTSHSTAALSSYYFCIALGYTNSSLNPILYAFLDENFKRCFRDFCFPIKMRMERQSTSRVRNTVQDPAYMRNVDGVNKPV

Assay [1] has as its target T1, Kappa-type opioid receptor (Cavia porcellus, UniProt P41144). In words: Compound was evaluated for the opioid receptor kappa affinity using guinea pig brain membranes.
The species entered for assay [2] is Mus musculus. In words: Molar potency ratio relative to the standard agonist EKC on field-stimulated mouse vas deferens.
For assay [3], the species on record is Mus musculus. As to the kind of experiment: Antagonist Ke values of approximately 15 nM which are indicative of k receptor antagonism on field-stimulated mouse vas deferens.
Assay [4] concerns Mus musculus. In words: Anti-nociceptive activity (Analgesia reversed by 3 mg/kg of naloxone) after administration through the subcutaneous route to female mice.
Assay [5] deals with T1, Kappa-type opioid receptor. As to the kind of experiment: Compound was evaluated for the Opioid receptor kappa 1 affinity using guinea pig brain membranes.

Molecules are shown by their SMILES.

A word on the IC50: it is the point on the concentration scale where inhibition reaches its midpoint. `CN(C(=O)Cc1ccc(Cl)c(Cl)c1)[C@H](CN1CCCC1)C(C)(C)C`: the concentration for half-maximal inhibition (IC50) in assay [1] is 24.3 nM. Besides, in the assay listed under Mus musculus [2], the Potency vs EKC was found to be 2.5. The Ke naloxone in the assay listed under Mus musculus [3] was determined as 10.8 nM.

For the compound `C[C@H](CN1CCCC1)N(C)C(=O)Cc1ccc(Cl)c(Cl)c1`, the IC50 in assay [1] stood at 10000 nM.

The term ED50 denotes the dose at which the effect has come halfway, by size or by number of responders. With `CN(C(=O)Cc1ccc(Cl)c(Cl)c1)[C@H](CN1CCCC1)c1ccccc1`, the Potency vs EKC in the assay filed under Mus musculus [2] came to 16.1. This compound gave a Ke naloxone in the assay filed under Mus musculus [3] of 17.8 nM. The same compound returned an ED50 with Mus musculus [4] of 0.004 mg/kg. It took 6.9 nM to reach half-maximal inhibition in assay [5] (IC50).

In turn, `C[C@H]([C@H](C)N(C)C(=O)Cc1ccc(Cl)c(Cl)c1)N1CCCC1` gave an IC50 in assay [1] of 3410 nM.

As for `C[C@@H](CN1CCCC1)N(C)C(=O)Cc1ccc(Cl)c(Cl)c1` [listing 1 of 2 here], in assay [5], the 50% inhibitory concentration (IC50) stood at 53.2 nM.

For `C[C@@H](CN1CCCC1)N(C)C(=O)Cc1ccc(Cl)c(Cl)c1` [listing 2 of 2 here], the Potency vs EKC in the assay listed under Mus musculus [2] turned out to be 0.14. This compound also came in with a Ke naloxone in the assay filed under Mus musculus [3] of 17.3 nM.

Consider `C[C@@H](CN(C)C(=O)Cc1ccc(Cl)c(Cl)c1)N1CCCC1` [listing 1 of 2 here], for which the Potency vs EKC in the assay listed under Mus musculus [2] was 0.002. Besides, the Ke naloxone in the assay listed under Mus musculus [3] amounted to 25 nM.

In assay [1], `CN(CCN1CCCC1)C(=O)Cc1ccc(Cl)c(Cl)c1` displayed an IC50 of 6120 nM.

In assay [1], `C[C@@H]([C@H](C)N(C)C(=O)Cc1ccc(Cl)c(Cl)c1)N1CCCC1` [listing 1 of 2 here] had an IC50 of 84.6 nM. Against the preceding compound, the IC50 is about 72-fold lower.

Consider `CN(C(=O)Cc1ccc(Cl)c(Cl)c1)C(C)(C)CN1CCCC1`, for which the IC50 in assay [1] was 2060 nM. Besides, in the assay filed under Mus musculus [2], the Potency vs EKC stood at 0.004.

Compound `CC(C)[C@@H](CN1CCCC1)N(C)C(=O)Cc1ccc(Cl)c(Cl)c1` [listing 1 of 2 here] gave a 50% inhibitory concentration (IC50) in assay [5] of 6.3 nM. That is a single-digit nanomolar value.

Consider `CC(C)[C@@H](CN1CCCC1)N(C)C(=O)Cc1ccc(Cl)c(Cl)c1` [listing 2 of 2 here], for which the Potency vs EKC in the assay listed under Mus musculus [2] turned out to be 4.3. In the assay filed under Mus musculus [3], this compound registered a Ke naloxone of 14.9 nM.

In turn, `C[C@@H](CN(C)C(=O)Cc1ccc(Cl)c(Cl)c1)N1CCCC1` [listing 2 of 2 here] yielded an IC50 in assay [1] of 1540 nM.

Consider `C[C@@H]([C@H](C)N(C)C(=O)Cc1ccc(Cl)c(Cl)c1)N1CCCC1` [listing 2 of 2 here], for which the Potency vs EKC in the assay filed under Mus musculus [2] was 0.013. This compound also showed a Ke naloxone in the assay listed under Mus musculus [3] of 19.1 nM.

`CN(C(=O)Cc1ccc(Cl)c(Cl)c1)C1CCCCC1N1CCCC1` (stereo not drawn) displayed an IC50 in assay [1] of 96 nM. Moreover, the Potency vs EKC in the assay filed under Mus musculus [2] turned out to be 0.11. In the assay listed under Mus musculus [3], this compound yielded a Ke naloxone of 15.5 nM. Moreover, the ED50 with Mus musculus [4] stood at 1.1 mg/kg.
